These are literature values, as cited in US10650914B2, “Fresh water acute criteria prediction method based on quantitative structure-activity relationship for metals” (Chinese Research Academy of Environmental Sciences, priority 2015, dated 2020).

Data set [1] relates to Carp. The following applies: training set.
For data set [2], the system named is aquatic organisms. The following applies: U.S. EPA guideline 1985, laboratory determination.
For data set [3], the system named is Daphnia magna.

As to Mercury, the “Observed value (log-LC50)” value in data set [1] is −0.0479. The hazard concentration in data set [2] is −1.8560. Moreover, the “Endpoint Index” value in data set [3] (fatality rate, 48 hours, 13° C., pH 7.6, total hardness 240 mg/L) is given as 0.022. In data set [3] (fatality rate, 48 hours, endpoint index divided by molecular weight), the “Endpoint” value is -0.9608 µmol/L. In addition, in data set [3] (training set of leave-one-out internal validation), the “Observed value (log-EC50)” value is on record as −0.9608.
